System: experimental human pain model, healthy volunteers
Assay: Pain-related evoked potentials (EEG) after CO2 stimulation of the nasal mucosa, Example 4
Assay type: in vivo
Conditions: 60% CO2; 20 mg oxycodone in combination with 45 mg naloxone
Experimental: This was a single site, single dose, double blind, placebo-controlled, 5-treatment, 5-period, randomized, balanced crossover study in healthy adult male and female subjects. […] Subjects were allocated each of the 5 treatments described in the synopsis according to a random allocation schedule (RAS). There was a 7-day washout period
Analgesic effects were assessed by means of an experimental human pain model based on the chemosomatosensory pain-related cortical potentials (CSSEPs) and pain-ratings after specific phasic nociceptive stimulation of the nasal mucosa with gaseous CO2. […]
In the first 20 minutes, 40 phasic CO2-stimuli were applied (20 stimuli at a concentration of 70% and 20 at a concentration of 60%, interstimulus interval 30 s). In response to these stimuli, pain-related potentials and subjective intensity estimates were recorded. […]
The EEG was recorded from 5 positions of the international 10/20 system (Cz, C3, C4, Fz and Pz; see FIG. 40) referenced to linked earlobes (A1+A2). Possible eye blink artifacts were monitored from an additional site (Fp2/A1+A2). […] The recorded analog EEG segments were then converted to digital and filed electronically. The average value for each recording position was separately calculated, discarding all eye blink contaminated records. […]

Compound: C=CCN1CC[C@]23c4c5ccc(O)c4O[C@H]2C(=O)CC[C@@]3(O)[C@H]1C5 [Naloxone, naloxone]
- Magnitude of reduction of amplitude P1N1 at C4 compared to baseline: 12.8%

From patent US20180008593A1 (Purdue Pharma L.P., priority 2005, published 2018)
